# Measured values from patent US4833241A, “Anthracycline compound” (Kirin Beer Kabushiki Kaisha, priority 1986, dated 1989).
# Tested on: P388 leukemia
# Assay: Antitumor activity in CDF1 mice with intraperitoneally transplanted P388 leukemia, i.v. administration, 30-day survival
# Format: in vivo
smiles,measurement,value
"CC[C@]1(O)Cc2c(O)c3c(c(O)c2[C@@H](O[C@H]2C[C@H](N4CCOCC4)[C@H](O)[C@H](C)O2)C1)C(=O)c1c(O)cccc1C3=O [M-R20X, 3'-deamino-3'-(4-morpholinyl)-13-deoxocarminomycin]",Therapeutic index,1.6
